Measured affinities in a library of Ab-14 light chain variants

The measurements come from Li et al. 2023 (doi:10.1038/s41467-023-39022-2) through the FLAb antibody collection.

The target is the same throughout: PDVDLGDISGINAS, from the HR2 region of SARS-CoV-2 spike.

Parent scFv Ab-14: VH joined to VL by three GGGGS repeats. Changes lie in the light chain CDRs alone.
VH: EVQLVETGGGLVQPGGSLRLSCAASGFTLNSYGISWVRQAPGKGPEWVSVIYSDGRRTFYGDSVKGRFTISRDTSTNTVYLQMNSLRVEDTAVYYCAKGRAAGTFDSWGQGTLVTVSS
VL: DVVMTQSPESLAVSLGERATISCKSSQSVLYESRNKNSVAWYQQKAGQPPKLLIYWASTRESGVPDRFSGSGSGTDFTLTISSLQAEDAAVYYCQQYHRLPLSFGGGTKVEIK

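The parent was found by panning a naive human phage display library on the peptide. Designed CDR sequences, proposed from the first random library and measured here. Group labels follow the data file (Ctrl: baseline library sampled from a position-specific scoring matrix, with some repeated check sequences; Rand: our label for a block that the file lists under HC and that is probably the random mutants of the ten best first-round binders; En: ensemble of fine-tuned language models; GP: Gaussian process model; HC: hill climbing; Gen: genetic algorithm; Gibbs: Gibbs sampling; a sequence that several methods proposed may carry one label only). In AlphaSeq, yeast of one mating type display the scFv and yeast of the other type display the target. Pairs that bind mate more often; barcode pairs of the diploids are counted by sequencing. The ratio of observed to expected reads was calibrated, replicate by replicate, on BCL2-family standards whose Kd was known from biolayer interferometry. Each pool was mated in six replicate cultures.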

Each variant is given by its three light chain CDRs, as the data file delimits them; those of the parent are KSSQSVLYESRNKNSVA, WASTRES, QQYHRLPLS. The read-out is the apparent dissociation constant on a log10 scale (nM): the lower, the stronger. Replicates are averaged; those with no signal do not enter the mean. "not detected" means that the variant was in the library but no mating with the target was seen in any replicate; the authors take this as a sign of poor binding, and no number exists. In the paper, a design with two or fewer of six values counts as a poor binder. A sequence measured in both rounds can read differently, since the two assays cover different ranges. The parent sequence was in this pool as ten entries: three were never detected, three once, and four in most replicates, with averages from 0.34 to 2.37. Nonspecific signal, from three strains lacking the peptide, appeared in 4% of pairings of all light chain designs, centred on 2.64 (5% of these signals below 1.59); values are not corrected for it. For each scFv, signals with the empty controls are counted beside the result.

| mean, log10 nM | detected | control signals | CDR-L1 | CDR-L2 | CDR-L3 | group |
|---|---|---|---|---|---|---|
| 0.75 | 6/6 | 0/18 | TLMQVGGYETNAHNSIA | DLRTREN | QQYHRLPLS | En_HC |
| not detected | 0/6 | 0/18 | KSSQSVLYEVRNENSVA | WAYIRVS | QQYHRLPLS | Ctrl |
| not detected | 0/6 | 0/18 | KSSQSLLYESRNKNSVA | WASTRES | DQYHRLPLF | Ctrl |
| -0.07 | 6/6 | 0/18 | KLSQSQLYESRNKNSVA | NASTRES | QDYHRLPLS | GP_Gen |
| -0.12 | 6/6 | 2/18 | KFSQSWLYESRNKNSVA | DASTRES | QQYHRLPLS | GP_Gen |
| 0.04 | 6/6 | 0/18 | KLEQSWLYESRNKNSVA | NASERES | QQYHRLPLS | GP_Gen |
| not detected | 0/6 | 1/18 | RLWQQMYGFNIHANAIA | EGKERTW | QQYFRLPLS | En_Gibbs |
| 0.22 | 6/6 | 2/18 | KLMQSVLYESRNKNSVA | EASTRED | QQYHRLPLS | GP_HC |
| 0.64 | 6/6 | 1/18 | KSSWSVLYESGNKNSVA | HASTRES | QQYHRLPLS | GP_HC |
| not detected | 0/6 | 0/18 | KITYQYRFEQLSKNNIA | EVVTRLK | QQYHRLPLS | En_HC |
| 0.08 | 6/6 | 2/18 | SISGFMKTLSAHKNNVA | DMTCRED | QQYDHLPLS | En_Gen |
| 0.61 | 6/6 | 0/18 | KFQQSELYESRNKNSVA | NASQRLS | QQYHRLPLS | GP_Gen |
| 1.15 | 6/6 | 1/18 | KSSQSVLEESRNKNSVA | WASTRES | QQYARLPLS | Ctrl |
| 2.60 | 6/6 | 1/18 | VFQQQWDGHTLTNSSVA | NVDERME | QQYNRLPLM | En_Gibbs |
| 0.99 | 6/6 | 0/18 | HMSALTLGGMRARNSVA | QMTTREN | QQYDRLPLT | En_Gen |
| 0.49 | 6/6 | 0/18 | KFSDSVLLESRHKNSVA | NASTRES | QQYHRLPLS | GP_HC |
| not detected | 0/6 | 1/18 | KKDQSVLYESRNKNSVA | WASTRES | QLYHRLILS | Ctrl |
| 0.27 | 6/6 | 2/18 | KMSQSNPYESRNWNSVA | NASKRLS | QQYHRLPLS | GP_Gibbs |
| 1.39 | 6/6 | 0/18 | KLSQSDGYESRNKNSVA | HASCRCS | QQYHRLPLS | GP_Gibbs |
| -0.07 | 6/6 | 1/18 | KLSQSVLYESRNKMSVA | NASTRMS | QQYHRLPLS | GP_Gen |
| 0.01 | 6/6 | 0/18 | KLGDMVHTLSRNKNSIA | DMRTREN | QQYYRLPLS | En_HC |
| -0.22 | 6/6 | 0/18 | KFSQSVLYESRNKNSVA | NASTRES | QQYHRLPLQ | GP_Gen |
| 1.04 | 6/6 | 0/18 | KLIQSVAMMSRNKDSIA | DNSTREY | QQYHRLPLS | En_HC |
| 0.21 | 6/6 | 1/18 | QISGITGHMSMIKNNVA | EMETREN | QQYERLPLS | En_Gen |
| -0.03 | 6/6 | 3/18 | KFSQSDDYEDRNKNSVA | NGSTRSS | QQYHRLPLS | GP_Gibbs |
| 1.32 | 6/6 | 1/18 | RVTIISDPYMENRNAIA | QTSLRAH | QQYQMLPLT | En_Gibbs |
| -0.31 | 6/6 | 0/18 | KLAQSWLYESRNKNSVA | NASTRES | QQYHRLPLS | GP_Gen |
| 2.39 | 5/6 | 0/18 | KVTMYELPMEFNRSAVA | QAEVRAP | QQYWRLPLE | En_Gibbs |
| -0.01 | 6/6 | 0/18 | SLVQEKSVGDYNAGNIA | AGNQLSV | QQYNRLPLS | En_Gibbs |
| 1.93 | 6/6 | 0/18 | TISQLHNMGTFAINSVA | QAEIRNN | QQYDRLPLA | En_Gen |
| 0.54 | 6/6 | 0/18 | KLSQSMGYGERNKNSVA | HASQRMS | QQYHRLPLS | GP_Gibbs |
| 1.01 | 6/6 | 1/18 | KSSQSVLYESRNKNSVA | HASTRES | QQYSRLPLS | Ctrl |
| 0.46 | 6/6 | 0/18 | KSGQGVLYESANKNSVA | GASTRES | QKYHRLPLS | Rand |
| 0.63 | 6/6 | 0/18 | KISQMVRVGSTKGNSIA | EEETRAD | QQYHRLPLS | En_Gen |
| 0.53 | 6/6 | 2/18 | KSQQLVLYESRNNNSVA | GSSTRES | QQYHRLPLS | Ctrl |
| 2.18 | 2/6 | 0/18 | KSSQSDRYESRNKNQVA | RASTRES | QQMHRLPLS | Ctrl |
| 0.20 | 6/6 | 0/18 | KSLQSQLYESRNKNSVA | HASTRED | QQYHQLPLS | GP_HC |
| -0.24 | 6/6 | 0/18 | KLQMQMLYESRMMNSVA | DASVRES | QQYHRLPLS | GP_Gibbs |
| 1.10 | 6/6 | 4/18 | KSSQSVLYESRNKNSVA | GASTRES | QQYHRFPLS | Ctrl |
| -0.39 | 6/6 | 0/18 | KLPQSFLYESRNKNSVA | EASTRES | QQYHRLPLS | GP_Gen |
| 1.09 | 6/6 | 4/18 | MVNMHDEGFQGHKDNIA | NAATKEG | QHYARLPLV | En_Gibbs |
| -0.09 | 6/6 | 1/18 | KLPQSQLYESRNKNSVA | NASTRES | QDYHRLPLS | GP_Gen |
| not detected | 0/6 | 0/18 | KSSMAVLYESRNKNSVA | WASTRES | QQYHRLPLS | Ctrl |
| 0.93 | 6/6 | 1/18 | NVDISQNTNYNHKANVA | DHDERVI | QQYSRLPLS | En_Gibbs |
| -0.24 | 6/6 | 0/18 | KLSFSYLYESRNKNSVA | NASTRES | QQYHRLPLS | GP_Gen |
| 0.04 | 6/6 | 0/18 | KITATMRFEQKASNNIA | EVTTRSK | QQYVRLPLA | En_Gen |
| 2.32 | 5/6 | 0/18 | KISQMYRYEQQNSSSIA | EANMREQ | QSYHRLPLS | En_HC |
| 0.53 | 6/6 | 0/18 | TISGMANYESTNINSVA | ELTTRGS | QQYERLPLS | En_HC |
| 0.13 | 6/6 | 0/18 | HMSALTLMGSRQRNSVA | QMTTREN | QQYDRLPLS | En_Gen |
| 0.14 | 6/6 | 1/18 | KQSQMVPFESRNKNSVA | DASTRES | QQYHRLPLS | GP_HC |
| not detected | 0/6 | 0/18 | ELFFNDFQLAIQSNNIA | HASLREV | QQYAHLPLV | En_Gibbs |
| not detected | 0/6 | 0/18 | KSSQSVLYESRNKNSVA | HASTRES | TQYHRLPLS | Ctrl |
| 0.63 | 6/6 | 0/18 | KVYWSVDYEDRNKNSVA | HASRRES | QQYHRLPLS | GP_Gibbs |
| 0.15 | 6/6 | 0/18 | TLGGVMDMTSKNVNSVA | DLTTRGN | QQYHRLPLS | En_HC |
| -0.16 | 6/6 | 0/18 | KLSMSELYESRNKNSVA | NASTREE | QQYHRLPLS | GP_Gen |
| 0.14 | 6/6 | 1/18 | KSSQSWLYESRNKNSVA | AASTRES | QQYHRLPLS | Ctrl |
| not detected | 0/6 | 0/18 | KSSQSVLYESRNKNSVA | WASTRES | QQYHRVPLS | Ctrl |
| 0.01 | 6/6 | 1/18 | KMQQSQLYESRMSNAVA | NASYRMS | QQYHRLPLS | GP_Gibbs |
| 0.59 | 6/6 | 0/18 | KLQWSWLMQSRMKNSVA | HASMRES | QQYHRLPLS | GP_Gibbs |
| 0.76 | 6/6 | 0/18 | KLQQSWWYESRNKNSVA | SASQREV | QQYHRLPLS | GP_Gibbs |